Source: US6583108B1, “Human bikunin” (Bayer Corporation, dated 2003)

Assays:
[1] = target: human tissue kallikrein (human) (UniProt P06870); assay: enzyme inhibition kinetics, PFR-AMC substrate
[2] = target: bovine pancreatic kallikrein (bovine); assay: enzyme inhibition kinetics, PFR-AMC substrate
[3] = target: human tissue kallikrein (human) (UniProt P06870); assay: enzyme inhibition kinetics
[4] = target: bovine trypsin (bovine) (UniProt P00760); assay: enzyme inhibition kinetics
[5] = target: bovine chymotrypsin (bovine) (UniProt P00766); assay: enzyme inhibition kinetics
[6] = target: bovine pancreatic kallikrein (bovine); assay: enzyme inhibition kinetics
[7] = target: bovine trypsin (bovine) (UniProt P00760); assay: enzyme inhibition kinetics, GPK-AMC substrate
[8] = target: human factor Xa (human) (UniProt P00742); assay: enzyme inhibition assay, aprotinin at 31 µM
[9] = target: human plasmin (human) (UniProt P00747); assay: enzyme inhibition kinetics

Row | Ki [1] | Ki [2] | Ki [3] | Ki [4] | Ki [5] | Ki [6] | Ki [7] | % inhibition [8] | Ki [9] | Substance
1 | 0.004 nM | 0.02 nM | 0.004 nM | 0.8 nM | 0.9 nM | 0.02 nM | 0.8 nM | – | – | aprotinin (Trasylol)
2 | – | – | – | – | – | – | – | 5% | 13 nM | aprotinin (Trasylol) (other; other documents disagree on this pair)
